# Test results published in ChEMBL document CHEMBL1142221, “Nootropic alpha7 nicotinic receptor allosteric modulator derived from GABAA receptor modulators” (Proc Natl Acad Sci U S A, 2007).
# Chains of the proteins cited; added tags and fusions are not shown. Lines headed by an entry give the natural chain unless they say otherwise; changes in a name come on top.
# UniProt P18507: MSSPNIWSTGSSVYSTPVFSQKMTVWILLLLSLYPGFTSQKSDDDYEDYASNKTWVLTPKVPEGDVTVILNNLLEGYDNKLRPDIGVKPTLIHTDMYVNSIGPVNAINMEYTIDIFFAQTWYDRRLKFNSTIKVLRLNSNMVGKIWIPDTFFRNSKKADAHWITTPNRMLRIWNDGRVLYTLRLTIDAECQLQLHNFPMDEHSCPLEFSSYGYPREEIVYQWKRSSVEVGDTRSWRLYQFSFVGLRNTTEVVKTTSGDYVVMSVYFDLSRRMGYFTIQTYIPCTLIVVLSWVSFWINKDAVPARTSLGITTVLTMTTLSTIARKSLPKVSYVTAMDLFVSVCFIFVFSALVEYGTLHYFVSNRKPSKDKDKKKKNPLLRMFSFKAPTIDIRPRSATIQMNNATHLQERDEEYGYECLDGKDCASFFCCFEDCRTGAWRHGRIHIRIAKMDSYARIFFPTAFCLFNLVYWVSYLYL
# UniProt P28472: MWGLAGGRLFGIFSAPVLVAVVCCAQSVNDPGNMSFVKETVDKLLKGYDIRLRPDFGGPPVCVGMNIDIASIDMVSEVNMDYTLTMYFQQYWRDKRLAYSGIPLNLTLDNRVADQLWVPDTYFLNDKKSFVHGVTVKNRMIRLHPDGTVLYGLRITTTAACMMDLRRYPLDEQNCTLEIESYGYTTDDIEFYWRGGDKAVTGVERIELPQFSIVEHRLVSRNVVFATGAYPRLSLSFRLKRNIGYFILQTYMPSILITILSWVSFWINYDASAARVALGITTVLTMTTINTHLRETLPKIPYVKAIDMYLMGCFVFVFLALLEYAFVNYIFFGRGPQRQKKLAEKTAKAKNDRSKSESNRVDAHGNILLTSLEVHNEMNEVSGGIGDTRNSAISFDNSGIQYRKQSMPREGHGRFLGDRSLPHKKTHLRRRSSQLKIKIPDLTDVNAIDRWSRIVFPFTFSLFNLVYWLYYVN
# UniProt P47869: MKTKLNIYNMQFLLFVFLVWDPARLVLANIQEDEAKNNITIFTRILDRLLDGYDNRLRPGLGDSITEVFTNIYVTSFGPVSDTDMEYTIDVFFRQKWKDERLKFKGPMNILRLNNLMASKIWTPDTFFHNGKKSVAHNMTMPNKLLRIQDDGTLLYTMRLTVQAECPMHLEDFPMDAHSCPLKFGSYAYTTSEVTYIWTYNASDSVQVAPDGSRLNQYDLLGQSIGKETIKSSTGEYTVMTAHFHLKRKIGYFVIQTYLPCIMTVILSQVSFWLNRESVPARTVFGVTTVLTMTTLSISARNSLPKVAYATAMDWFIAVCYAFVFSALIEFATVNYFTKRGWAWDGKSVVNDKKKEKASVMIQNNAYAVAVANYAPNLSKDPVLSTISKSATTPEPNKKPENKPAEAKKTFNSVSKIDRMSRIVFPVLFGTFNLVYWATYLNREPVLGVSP
# UniProt P36544, whole entry: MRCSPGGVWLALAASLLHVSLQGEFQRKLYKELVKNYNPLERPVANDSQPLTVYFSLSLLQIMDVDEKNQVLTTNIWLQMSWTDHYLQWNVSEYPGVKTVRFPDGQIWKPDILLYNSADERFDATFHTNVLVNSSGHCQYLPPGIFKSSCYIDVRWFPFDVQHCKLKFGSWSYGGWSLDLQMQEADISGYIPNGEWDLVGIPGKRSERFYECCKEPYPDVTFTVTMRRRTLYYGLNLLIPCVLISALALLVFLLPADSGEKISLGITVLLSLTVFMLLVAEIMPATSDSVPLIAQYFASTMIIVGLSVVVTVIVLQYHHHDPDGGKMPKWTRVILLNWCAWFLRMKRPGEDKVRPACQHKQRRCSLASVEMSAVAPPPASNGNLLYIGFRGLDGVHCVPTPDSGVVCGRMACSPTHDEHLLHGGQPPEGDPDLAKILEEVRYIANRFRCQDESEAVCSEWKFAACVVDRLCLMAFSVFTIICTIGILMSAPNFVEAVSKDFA
# Key:
# Conditions in all cases: Oocyte
# [1] = test system: Neuronal acetylcholine receptor alpha3/beta4 (Rattus norvegicus); test: Activation of rat nAChR alpha-3-beta-4 expressed in Xenopus oocytes assessed as modulation of nicotine-induced current by measuring ratio of I/Imax current by two-electrode voltage-clamp method
# [2] = target: GABA-A receptor; alpha-2/beta-3/gamma-2 (Homo sapiens) (UniProt P18507+P28472+P47869); test: Activation of human GABAA alpha-2-beta-3-gamma-2L receptor expressed in Xenopus oocytes assessed as modulation of GABA-induced current by measuring ratio of I/Imax current by two-electrode voltage-clamp method
# [3] = target: Neuronal acetylcholine receptor subunit alpha-7 (Homo sapiens, UniProt P36544); test: Activation of human alpha-7 nAChR expressed in Xenopus oocytes assessed as modulation of nicotine-induced current by measuring ratio of I/Imax current by two-electrode voltage-clamp method; type: cell-based
# Procedure, shortened: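 Oocytes injected with 0.005–50 ng mRNA per subunit (α4β2 and α3β4 at 1:1; α1β1γδ at 1:1:1:1; α7 and 5-HT3A single). Two-electrode voltage clamp at −70 mV, 3–14 days post-injection. Ca²⁺-free Ringer's with BaCl₂ replacing Ca²⁺ (pH 7.4) to limit Ca²⁺-activated Cl⁻ currents. Rapid linear-array application. Current expressed as I/I_max; concentration–effect data fit to a four-parameter logistic. For α7, agonist was fixed at EC₅.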
structure (smiles),measurement,setting,value
Cc1cc(/C(=C/Nc2ccc(Cl)cc2)C(=O)Nc2ccc(Cl)cc2)on1 [AVL-3288],Activity,[1],inactive
same,Ratio,[2],0.14
same,Ratio,[3],0.6

# Active and inactive are the calls of the source. No cut-off for these calls is given here.
